The values that follow come from patent publication US12616739B2, “GLP-1 prodrugs and uses thereof” (Novo Nordisk A/S, priority 2020, dated 2026).

The data set in a line: Prodrug to drug conversion half-life in vitro, PBS pH 7.4, 37° C. In kind it is physicochemical. An outline of the steps: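 Prodrug at a 200 μM target in PBS pH 7.4 incubated at 37 °C, sampled over 2 weeks and analysed by UPLC-UV (215 nm)-MS. ln of prodrug peak area % plotted against time; first-order half-life = ln(2)/k from the slope.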

`CC[C@H](C)[C@H](NC(=O)[C@H](Cc1ccccc1)NC(=O)[C@H](CCC(=O)O)NC(=O)[C@H](CCCCNC(=O)COCCOCCNC(=O)COCCOCCNC(=O)CC[C@H](NC(=O)CCCCCCCCCCCCCCCCC(=O)O)C(=O)O)NC(=O)[C@H](C)NC(=O)[C@H](C)NC(=O)[C@H](CCC(N)=O)NC(=O)CNC(=O)[C@H](CCC(=O)O)NC(=O)[C@H](CC(C)C)NC(=O)[C@H](Cc1ccc(O)cc1)NC(=O)[C@H](CO)NC(=O)[C@H](CO)NC(=O)[C@@H](NC(=O)[C@H](CC(=O)O)NC(=O)[C@H](CO)NC(=O)[C@@H](NC(=O)[C@H](Cc1ccccc1)NC(=O)[C@@H](NC(=O)CNC(=O)[C@H](CCC(=O)O)NC(=O)C(C)(C)NC(=O)[C@H](Cc1c[nH]cn1)NC(=O)CN(CCN)C(=O)CN)[C@@H](C)O)[C@@H](C)O)C(C)C)C(=O)N[C@@H](C)C(=O)N[C@@H](Cc1c[nH]c2ccccc12)C(=O)N[C@@H](CC(C)C)C(=O)N[C@H](C(=O)N[C@@H](CCCNC(=N)N)C(=O)NCC(=O)N[C@@H](CCCNC(=N)N)C(=O)NCC(=O)O)C(C)C` [Chem. 36, Gly-N^α-2-(aminoethyl)-Gly-semaglutide, reference compound]: the half-life (in general, how long it takes for the measured level to halve) was 24.1 days.
